Data reported in patent publication US10039753B2, “Imidazo[4,5-c]quinoline and imidazo[4,5-c][1,5]naphthyridine derivatives as LRRK2 inhibitors” (Pfizer Inc., priority 2015, dated 2018).

By UniProt entry, the sequences of proteins in these tests, tags left out. Residues count along the entry.
UniProt Q5S007, 970-2527 limits assumed: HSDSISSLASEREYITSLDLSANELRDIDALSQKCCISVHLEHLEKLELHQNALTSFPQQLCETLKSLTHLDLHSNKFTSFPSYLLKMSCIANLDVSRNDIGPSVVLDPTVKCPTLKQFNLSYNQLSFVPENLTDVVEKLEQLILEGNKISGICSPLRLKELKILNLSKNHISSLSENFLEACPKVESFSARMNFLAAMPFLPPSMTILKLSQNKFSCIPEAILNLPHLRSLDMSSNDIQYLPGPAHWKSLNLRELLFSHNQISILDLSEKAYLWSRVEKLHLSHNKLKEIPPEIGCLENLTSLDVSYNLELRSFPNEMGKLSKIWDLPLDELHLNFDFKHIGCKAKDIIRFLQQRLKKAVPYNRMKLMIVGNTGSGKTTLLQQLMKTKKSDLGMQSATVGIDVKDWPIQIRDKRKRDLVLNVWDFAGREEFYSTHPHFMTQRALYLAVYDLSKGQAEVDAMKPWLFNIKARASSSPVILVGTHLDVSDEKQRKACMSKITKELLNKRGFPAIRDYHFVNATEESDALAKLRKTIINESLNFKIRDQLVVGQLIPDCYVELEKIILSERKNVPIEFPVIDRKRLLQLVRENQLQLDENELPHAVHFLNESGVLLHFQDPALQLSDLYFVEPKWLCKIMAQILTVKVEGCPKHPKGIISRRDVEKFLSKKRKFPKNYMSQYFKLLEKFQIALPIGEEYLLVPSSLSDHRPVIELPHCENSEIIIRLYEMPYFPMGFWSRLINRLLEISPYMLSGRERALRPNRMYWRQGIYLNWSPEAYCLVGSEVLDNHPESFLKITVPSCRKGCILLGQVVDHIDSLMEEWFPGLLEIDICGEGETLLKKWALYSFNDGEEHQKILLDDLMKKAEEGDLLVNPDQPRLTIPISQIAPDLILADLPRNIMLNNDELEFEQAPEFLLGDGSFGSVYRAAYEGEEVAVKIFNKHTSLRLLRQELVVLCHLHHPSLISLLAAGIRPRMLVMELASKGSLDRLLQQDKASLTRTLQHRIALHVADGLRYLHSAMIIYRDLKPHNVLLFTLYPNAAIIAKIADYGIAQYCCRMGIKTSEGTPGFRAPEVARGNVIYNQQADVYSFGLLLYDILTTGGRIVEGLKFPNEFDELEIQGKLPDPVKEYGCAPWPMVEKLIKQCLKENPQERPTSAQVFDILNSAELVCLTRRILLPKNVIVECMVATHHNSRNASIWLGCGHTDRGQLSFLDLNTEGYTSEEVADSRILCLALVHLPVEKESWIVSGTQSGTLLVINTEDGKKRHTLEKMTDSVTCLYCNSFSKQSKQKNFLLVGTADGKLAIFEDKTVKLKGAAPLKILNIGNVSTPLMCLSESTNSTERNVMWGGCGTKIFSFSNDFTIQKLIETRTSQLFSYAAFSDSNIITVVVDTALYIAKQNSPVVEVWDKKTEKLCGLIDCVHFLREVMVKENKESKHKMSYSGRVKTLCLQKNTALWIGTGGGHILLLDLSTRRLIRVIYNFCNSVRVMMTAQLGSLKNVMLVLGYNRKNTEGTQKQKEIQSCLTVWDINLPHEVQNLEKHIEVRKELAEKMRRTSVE
UniProt Q5S007, 970-2527 G2019S limits assumed: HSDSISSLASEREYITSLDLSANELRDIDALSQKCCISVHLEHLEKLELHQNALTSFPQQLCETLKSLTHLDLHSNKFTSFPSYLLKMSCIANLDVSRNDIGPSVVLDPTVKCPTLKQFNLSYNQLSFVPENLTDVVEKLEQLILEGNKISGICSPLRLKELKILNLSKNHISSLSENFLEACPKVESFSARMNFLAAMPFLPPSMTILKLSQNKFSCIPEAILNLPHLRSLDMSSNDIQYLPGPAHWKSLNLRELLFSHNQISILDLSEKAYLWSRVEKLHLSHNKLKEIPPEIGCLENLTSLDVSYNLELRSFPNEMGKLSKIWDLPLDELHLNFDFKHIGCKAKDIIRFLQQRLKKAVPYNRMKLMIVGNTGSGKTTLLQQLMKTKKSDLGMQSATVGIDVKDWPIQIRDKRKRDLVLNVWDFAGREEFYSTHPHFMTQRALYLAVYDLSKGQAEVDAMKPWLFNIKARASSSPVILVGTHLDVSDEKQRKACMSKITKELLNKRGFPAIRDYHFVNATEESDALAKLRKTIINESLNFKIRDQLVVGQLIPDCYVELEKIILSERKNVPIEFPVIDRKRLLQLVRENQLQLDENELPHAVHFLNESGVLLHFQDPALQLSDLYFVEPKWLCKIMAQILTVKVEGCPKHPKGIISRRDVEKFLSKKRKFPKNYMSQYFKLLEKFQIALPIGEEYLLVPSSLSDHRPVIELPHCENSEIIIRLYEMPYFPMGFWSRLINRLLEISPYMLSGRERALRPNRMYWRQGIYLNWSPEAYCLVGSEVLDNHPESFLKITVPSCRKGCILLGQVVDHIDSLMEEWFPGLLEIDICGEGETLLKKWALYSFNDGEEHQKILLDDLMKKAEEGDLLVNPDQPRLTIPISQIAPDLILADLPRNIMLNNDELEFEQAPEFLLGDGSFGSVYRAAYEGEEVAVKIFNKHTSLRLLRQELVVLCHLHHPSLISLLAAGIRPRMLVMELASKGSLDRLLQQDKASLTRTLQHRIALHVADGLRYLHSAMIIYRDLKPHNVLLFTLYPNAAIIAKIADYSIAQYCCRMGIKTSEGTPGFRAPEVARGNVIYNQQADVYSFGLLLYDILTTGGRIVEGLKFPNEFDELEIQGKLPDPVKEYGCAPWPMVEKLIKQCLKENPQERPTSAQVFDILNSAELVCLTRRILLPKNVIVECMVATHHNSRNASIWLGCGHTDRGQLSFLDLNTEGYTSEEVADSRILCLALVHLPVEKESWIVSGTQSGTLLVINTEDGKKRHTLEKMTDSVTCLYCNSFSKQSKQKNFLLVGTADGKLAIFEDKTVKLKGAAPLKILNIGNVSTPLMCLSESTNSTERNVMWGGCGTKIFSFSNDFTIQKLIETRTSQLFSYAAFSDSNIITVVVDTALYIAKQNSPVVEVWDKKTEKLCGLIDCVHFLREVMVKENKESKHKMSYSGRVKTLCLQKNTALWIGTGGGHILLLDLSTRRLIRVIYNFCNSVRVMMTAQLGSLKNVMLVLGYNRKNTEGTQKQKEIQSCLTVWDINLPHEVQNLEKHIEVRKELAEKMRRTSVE

Key:
[1] = target: T1, GST-tagged truncated LRRK2 (Homo sapiens, UniProt Q5S007); assay: LRRK2 Assay, Format 2 (Lantha Screen), WT; format: biochemical; settings: geometric mean of 2-4 determinations unless otherwise indicated (a: >=5; b: single determination)
T1 construct: GST-tagged truncated LRRK2 from Invitrogen (Cat # PV4874); GST; purchased Invitrogen PV4874
Protocol: (§1) LRRK2 kinase activity was measured using Lantha Screen technology from Invitrogen. GST-tagged truncated LRRK2 from Invitrogen (Cat # PV4874) was incubated with a fluorescein-labeled peptide substrate based upon ezrin/radixin/moesin (ERM), also known as LRRKtide (Invitrogen cat # PR8976A), in the presence of a dose response of compound. Upon completion, the assay was stopped and detected with a terbium labeled anti-phospho-ERM antibody (Invitrogen, cat # PR8975A). […] Using Echo acoustic dispensing, 60 nL of compound was transferred to a low volume Corning 384-well assay plate. 3 μL of a working solution of substrate (200 nM LRRKtide, […]) prepared in assay buffer (50 mM HEPES, pH 7.5, 3 mM MgCl2, with 2 mM DTT and 0.01% Brij35 added fresh) was added to the 60 nL compound assay plate. The kinase reaction was started with […] of a working solution of LRRK2 enzyme at a concentration of […]. The final reaction concentrations were 100 nM LRRKtide, […], […] LRRK2 enzyme and a compound dose response with a top dose of 3 mM. The reaction was allowed to progress at room temperature for 30 minutes and then stopped with the addition of […] of detection buffer (20 mM Tris pH 7.6, 0.01% NP-40, 6 mM EDTA with 2 nM terbium labeled anti-phospho-ERM). After an incubation of 1 hour at room temperature, the plate was read on an Envision with an excitation wavelength of 340 nm and a reading emission at both 520 nm and 495 nm. The ratio of the 520 nm and 495 nm emission was used to analyze the data. Inhibition of mutant G2019S LRRK2 (Invitrogen cat # PV4881) was measured in the exact same method. All final concentrations of substrate ATP and enzyme were the same.

[2] = target: T2, mutant G2019S LRRK2 (Homo sapiens, UniProt Q5S007, G2019S); assay: LRRK2 Assay, Format 2 (Lantha Screen), G2019S mutant; format: biochemical; parameters: purchased Invitrogen PV4881; settings: geometric mean of 2-4 determinations unless otherwise indicated (a: >=5; b: single determination)
Protocol: as §1

[3] = tested on: kinase selectivity mini-panel; assay: Kinase selectivity (mini-panel), further assay run, Table 5A; format: biochemical; settings: 1 mM ATP, 1 μM drug concentration; for percent inhibition of ABL: kinase ABL; for percent inhibition of AKT: kinase AKT; for percent inhibition of AURA: kinase AURA; for percent inhibition of BTK: kinase BTK; for percent inhibition of CDK2_CyclinA: kinase CDK2_CyclinA; for percent inhibition of CHK1: kinase CHK1; for percent inhibition of CHK2: kinase CHK2; for percent inhibition of CKIIa′: kinase CKIIa′; for percent inhibition of CKIa: kinase CKIa; for percent inhibition of CaMKIIa: kinase CaMKIIa; for percent inhibition of EGFR: kinase EGFR; for percent inhibition of ERK2: kinase ERK2; for percent inhibition of EphA2: kinase EphA2; for percent inhibition of FGFR1: kinase FGFR1; for percent inhibition of GSK3b: kinase GSK3b; for percent inhibition of HGFR: kinase HGFR; for percent inhibition of IRAK4: kinase IRAK4; for percent inhibition of IRK: kinase IRK; for percent inhibition of JAK3: kinase JAK3; for percent inhibition of KDR (VEGF): kinase KDR (VEGF); for percent inhibition of LCK: kinase LCK; for percent inhibition of MARK1: kinase MARK1; for percent inhibition of MK2: kinase MK2; for percent inhibition of MLCK_sk: kinase MLCK_sk; for percent inhibition of MST2: kinase MST2; for percent inhibition of MST4: kinase MST4; for percent inhibition of PAK4: kinase PAK4; for percent inhibition of PDK1: kinase PDK1; for percent inhibition of PIM2: kinase PIM2; for percent inhibition of PKACa: kinase PKACa; for percent inhibition of PRKCB2: kinase PRKCB2; for percent inhibition of ROCKI: kinase ROCKI; for percent inhibition of SGK: kinase SGK; for percent inhibition of SRC: kinase SRC; for percent inhibition of TAO2: kinase TAO2; for percent inhibition of TIE2: kinase TIE2; for percent inhibition of TRKA: kinase TRKA; for percent inhibition of ZC1 (HGK): kinase ZC1 (HGK); for percent inhibition of p38: kinase p38
Protocol: The compounds were run using a commercially available kinase selectivity assay which is available from CarnaBio USA, Inc. 209 West Central St., Suite 307, Natick, Mass. 01760 USA. The compounds of Examples 3, 4, 5 and 22 were run in the assay at a concentration of 1 μM using an ATP concentration of 1 mM. Table 5A below provides kinase selectivity from a further assay run for the compounds of Examples 4, 11, 5, 104, 102 and 116.

[4] = target: T2, mutant G2019S LRRK2; assay: LRRK2 Assay, Format 1 (Lantha Screen), G2019S mutant
[5] = target: T1, GST-tagged truncated LRRK2; assay: LRRK2 Assay, Format 1 (Lantha Screen), WT; format: biochemical; settings: geometric mean of 2-4 determinations unless otherwise indicated
Protocol: LRRK2 kinase activity was measured using Lantha Screen technology from Invitrogen. GST-tagged truncated LRRK2 from Invitrogen (Cat # PV4874) was incubated with a fluorescein-labeled peptide substrate based upon ezrin/radixin/moesin (ERM), also known as LRRKtide (Invitrogen cat # PR8976A), in the presence of a dose response of compound. Upon completion, the assay was stopped and detected with a terbium labeled anti-phospho-ERM antibody (Invitrogen, cat # PR8975A). […] Aliquots (3.5 μL) of the 100% DMSO dose response were mixed with 46.5 μL water then 1 μL of this mixture was added to the 3 μL substrate mix in the 384-well plate. The kinase reaction was started with 3 μL of a working solution of LRRK2 enzyme at a concentration of 4 μg/mL. […] The reaction was allowed to progress at room temperature for two hours and then stopped with the addition of 7 μL of detection buffer (20 mM Tris pH 7.6, 0.01% NP-40, 0.02% NaN3, 6 mM EDTA with 2 nM terbium labeled anti-phospho-ERM).

SMILES: Cc1cnc(Cc2nc3cnc4ccc(Cl)cc4c3n2[C@@H]2CCO[C@H](C)C2)cn1 [Example 104, 8-Chloro-2-[(5-methylpyrazin-2-yl)methyl]-1-[(2R,4R)-2-methyltetrahydro-2H-pyran-4-yl]-1H-imidazo[4,5-c]quinoline]
- IC50 [1]: 7 nM
- IC50 [2]: 6.14 nM
- percent inhibition of ABL [3]: −6.38%
- percent inhibition of AKT [3]: −2.7%
- percent inhibition of AURA [3]: 1.41%
- percent inhibition of BTK [3]: −8.43%
- percent inhibition of CDK2_CyclinA [3]: −1.29%
- percent inhibition of CHK1 [3]: 1.3%
- percent inhibition of CHK2 [3]: −4.6%
- percent inhibition of CKIIa′ [3]: −0.31%
- percent inhibition of CKIa [3]: −2.89%
- percent inhibition of CaMKIIa [3]: −0.6%
- percent inhibition of EGFR [3]: −3.75%
- percent inhibition of ERK2 [3]: −2.07%
- percent inhibition of EphA2 [3]: −10.43%
- percent inhibition of FGFR1 [3]: 17.09%
- percent inhibition of GSK3b [3]: −4.34%
- percent inhibition of HGFR [3]: −5.38%
- percent inhibition of IRAK4 [3]: −7.15%
- percent inhibition of IRK [3]: −2.45%
- percent inhibition of JAK3 [3]: 17.09%
- percent inhibition of KDR (VEGF) [3]: 12.2%
- percent inhibition of LCK [3]: 1.74%
- percent inhibition of MARK1 [3]: −2.65%
- percent inhibition of MK2 [3]: −3.44%
- percent inhibition of MLCK_sk [3]: −3.75%
- percent inhibition of MST2 [3]: 10.18%
- percent inhibition of MST4 [3]: −3.83%
- percent inhibition of PAK4 [3]: −3.01%
- percent inhibition of PDK1 [3]: −5.16%
- percent inhibition of PIM2 [3]: −6.6%
- percent inhibition of PKACa [3]: −1.49%
- percent inhibition of PRKCB2 [3]: 1.13%
- percent inhibition of ROCKI [3]: −0.53%
- percent inhibition of SGK [3]: −2.75%
- percent inhibition of SRC [3]: −1.31%
- percent inhibition of TAO2 [3]: −4.56%
- percent inhibition of TIE2 [3]: −3.92%
- percent inhibition of TRKA [3]: 17.66%
- percent inhibition of ZC1 (HGK) [3]: −5.31%
- percent inhibition of p38 [3]: −1.52%

SMILES: Cc1cn(Cc2nc3cnc4ccc(C#N)cc4c3n2[C@@H]2CCO[C@H](C)C2)nn1 [Example 106, 1-[(2R,4R)-2-Methyltetrahydro-2H-pyran-4-yl]-2-[(4-methyl-1H-1,2,3-triazol-1-yl)methyl]-1H-imidazo[4,5-c]quinoline-8-carbonitrile]
- IC50 [4]: 2.14 nM
- IC50 [1]: 11.6 nM
- IC50 [2]: 11.8 nM
- IC50 [5]: 3.24 nM

SMILES: C[C@@H]1C[C@H](n2c(Cc3cn(C)nn3)nc3cnc4ccc(Cl)cc4c32)CCO1 [Example 107, 8-Chloro-1-[(2R,4R)-2-methyltetrahydro-2H-pyran-4-yl]-2-[(1-methyl-1H-1,2,3-triazol-4-yl)methyl]-1H-imidazo[4,5-c]quinoline]
- IC50 [4]: 1.89 nM
- IC50 [1]: 6.08 nM
- IC50 [2]: 5.76 nM
- IC50 [5]: 2.03 nM

SMILES: Cc1nnc(Cc2nc3cnc4ccc(Cl)cc4c3n2[C@@H]2CCO[C@H](C)C2)s1 [Example 116, 8-Chloro-1-[(2R,4R)-2-methyltetrahydro-2H-pyran-4-yl]-2-[(5-methyl-1,3,4-thiadiazol-2-yl)methyl]-1H-imidazo[4,5-c]quinoline]
- IC50 [1]: 6.2 nM
- IC50 [2]: 5.57 nM
- percent inhibition of ABL [3]: −8.45%
- percent inhibition of AKT [3]: 3%
- percent inhibition of AURA [3]: 8.57%
- percent inhibition of BTK [3]: −0.86%
- percent inhibition of CDK2_CyclinA [3]: 7.76%
- percent inhibition of CHK1 [3]: 9.11%
- percent inhibition of CHK2 [3]: 0.39%
- percent inhibition of CKIIa′ [3]: 1.67%
- percent inhibition of CKIa [3]: 4.68%
- percent inhibition of CaMKIIa [3]: 8.8%
- percent inhibition of EGFR [3]: 4.03%
- percent inhibition of ERK2 [3]: 10.33%
- percent inhibition of EphA2 [3]: 5.08%
- percent inhibition of FGFR1 [3]: 23.36%
- percent inhibition of GSK3b [3]: 2.43%
- percent inhibition of HGFR [3]: −2.04%
- percent inhibition of IRAK4 [3]: 11.9%
- percent inhibition of IRK [3]: 3.5%
- percent inhibition of JAK3 [3]: 5.86%
- percent inhibition of KDR (VEGF) [3]: 24.23%
- percent inhibition of LCK [3]: 0.41%
- percent inhibition of MARK1 [3]: 1.61%
- percent inhibition of MK2 [3]: 7.5%
- percent inhibition of MLCK_sk [3]: 5.97%
- percent inhibition of MST2 [3]: 24.53%
- percent inhibition of MST4 [3]: 8.69%
- percent inhibition of PAK4 [3]: 4.02%
- percent inhibition of PDK1 [3]: 5.49%
- percent inhibition of PIM2 [3]: 5.63%
- percent inhibition of PKACa [3]: −0.26%
- percent inhibition of PRKCB2 [3]: 22.9%
- percent inhibition of ROCKI [3]: 3.61%
- percent inhibition of SGK [3]: 3.22%
- percent inhibition of SRC [3]: 5.44%
- percent inhibition of TAO2 [3]: 6.14%
- percent inhibition of TIE2 [3]: 7.08%
- percent inhibition of TRKA [3]: 14.91%
- percent inhibition of ZC1 (HGK) [3]: −1.13%
- percent inhibition of p38 [3]: 13.76%
